The target of this experiment is Bcr-Abl DH domain (residues 487–702) (UniProt P11274). The experiment can be described thus: NMR titration; GTPase titrated to 50 μM 15N-labeled DH domain; 50 mM HEPES pH 7, 50 mM NaCl, 1 mM DTT, 1 mM imidazole, 2 mM EDTA; [15N,1H]-TROSY; about 10 peaks fitted to a 1:1 binding model, mean Kd.

The term Kd denotes a measure of binding affinity in units of concentration. The low end stands for tighter binding, the high end for weaker binding.

“Rac1 (from UniProt P63000 1-192) (enzyme)” came in with a Kd of 800 µM.
